Earlier results, collected in paper PMC9230956.

Chains of the proteins cited; added tags and fusions are not shown. Residues count along the entry.
UniProt P19235, 25-250: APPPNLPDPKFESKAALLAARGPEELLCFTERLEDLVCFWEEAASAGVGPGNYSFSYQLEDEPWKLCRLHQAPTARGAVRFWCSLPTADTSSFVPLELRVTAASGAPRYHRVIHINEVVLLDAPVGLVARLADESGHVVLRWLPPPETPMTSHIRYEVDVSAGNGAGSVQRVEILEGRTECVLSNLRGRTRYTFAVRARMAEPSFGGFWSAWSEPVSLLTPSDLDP

Molecular target: EPOR (Homo sapiens) (UniProt P19235)
Assay: magnetic modulation biosensing

- Kd: 1.4 nM
Substance: EPO (from UniProt P01588)
